For nine compounds, activation results are on record in PubChem BioAssay AID731 (The Scripps Research Institute Molecular Screening Center, 2007).

Amino acid sequences for entries named in this document (tags omitted). Residues count along the entry.
UniProt P37231, 232-505 limits assumed: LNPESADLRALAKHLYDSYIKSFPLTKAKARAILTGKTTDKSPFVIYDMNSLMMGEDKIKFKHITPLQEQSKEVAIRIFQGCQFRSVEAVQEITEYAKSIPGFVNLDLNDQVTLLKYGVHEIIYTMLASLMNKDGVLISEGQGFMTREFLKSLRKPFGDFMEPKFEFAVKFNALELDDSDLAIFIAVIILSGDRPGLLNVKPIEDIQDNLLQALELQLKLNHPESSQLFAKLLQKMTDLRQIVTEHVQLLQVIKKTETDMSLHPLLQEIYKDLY
UniProt Q9Y6Q9, whole entry partner: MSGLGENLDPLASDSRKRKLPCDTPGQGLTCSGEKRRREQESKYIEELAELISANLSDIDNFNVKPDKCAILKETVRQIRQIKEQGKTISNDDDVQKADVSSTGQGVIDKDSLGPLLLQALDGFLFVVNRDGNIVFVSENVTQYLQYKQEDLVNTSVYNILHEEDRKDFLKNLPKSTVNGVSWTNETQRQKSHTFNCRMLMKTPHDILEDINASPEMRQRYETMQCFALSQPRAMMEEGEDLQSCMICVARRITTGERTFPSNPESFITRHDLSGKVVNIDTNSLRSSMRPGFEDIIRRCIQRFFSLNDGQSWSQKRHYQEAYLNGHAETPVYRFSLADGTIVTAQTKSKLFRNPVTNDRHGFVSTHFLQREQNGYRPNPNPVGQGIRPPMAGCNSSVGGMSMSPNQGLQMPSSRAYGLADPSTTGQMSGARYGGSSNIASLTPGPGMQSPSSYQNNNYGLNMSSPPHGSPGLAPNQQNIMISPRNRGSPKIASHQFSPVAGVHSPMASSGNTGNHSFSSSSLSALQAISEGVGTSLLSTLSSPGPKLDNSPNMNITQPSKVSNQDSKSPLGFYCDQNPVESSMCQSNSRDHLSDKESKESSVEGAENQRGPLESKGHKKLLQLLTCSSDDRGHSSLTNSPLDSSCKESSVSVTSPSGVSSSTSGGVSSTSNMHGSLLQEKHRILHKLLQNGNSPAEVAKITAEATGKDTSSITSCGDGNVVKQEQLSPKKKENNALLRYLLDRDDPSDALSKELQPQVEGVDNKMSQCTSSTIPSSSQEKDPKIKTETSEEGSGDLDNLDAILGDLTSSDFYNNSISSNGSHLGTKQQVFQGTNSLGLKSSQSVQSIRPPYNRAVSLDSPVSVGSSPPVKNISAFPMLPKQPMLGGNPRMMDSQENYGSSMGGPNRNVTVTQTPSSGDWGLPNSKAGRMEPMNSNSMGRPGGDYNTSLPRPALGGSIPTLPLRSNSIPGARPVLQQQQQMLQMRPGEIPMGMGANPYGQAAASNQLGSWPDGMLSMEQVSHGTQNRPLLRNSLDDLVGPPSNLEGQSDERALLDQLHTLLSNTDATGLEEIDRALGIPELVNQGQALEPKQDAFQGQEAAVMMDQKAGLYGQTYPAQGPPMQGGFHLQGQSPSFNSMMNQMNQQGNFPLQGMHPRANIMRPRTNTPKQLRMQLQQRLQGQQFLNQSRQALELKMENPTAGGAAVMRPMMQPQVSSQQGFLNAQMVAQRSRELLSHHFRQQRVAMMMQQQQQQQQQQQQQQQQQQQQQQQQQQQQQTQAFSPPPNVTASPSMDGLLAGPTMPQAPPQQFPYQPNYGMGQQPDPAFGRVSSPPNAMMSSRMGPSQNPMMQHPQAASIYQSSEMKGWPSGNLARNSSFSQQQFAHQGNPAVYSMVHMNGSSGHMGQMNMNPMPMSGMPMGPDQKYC

Only a part is listed here, and it is no random draw. Some results for these compounds are left out of this collection, so the calls shown say nothing about other tests. The source made the active and inactive calls. Rule as the data show it: active = activation above about 23%; inactive = the rest.

The target in the test is Peroxisome proliferator-activated receptor gamma (Homo sapiens) (UniProt P37231). The test is described as follows: PPARgamma agonists recruiting SRC-3 coactivator, primary screen, biochemical (AID 731).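 Also: 0% = DMSO and 100% = reference agonist.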 To be noted: biochemical PPARgamma/SRC-3 coactivator recruitment assay; at 8 µM; hits give high values.
For the compound `O=C(NCC1(N2CCCCC2)CCCCC1)c1cc([N+](=O)[O-])ccc1Cl`, the activation was inactive: -1.8%.
The value for `CC(C)N1C(=O)CC2(CCN(CCOC(=O)C(O)(c3ccccc3)c3ccccc3)CC2)C1=O` was inactive: -15.7%; that for `Cc1ccccc1C(=O)NCC1(N2CCCCC2)CCCCC1` was inactive: 0.64%.
Next, `CN(C)C1CCCC1OC(=O)C(O)(c1ccccc1)c1ccccc1` (centres undefined): inactive: -1.27%.
The value for `C=CCN1CCN(CCOC(=O)C(O)(c2ccccc2)c2ccccc2)CC1` was inactive: 1.73%; that for `CCN1CCCC(OC(=O)C2(O)c3ccccc3C=Cc3ccccc32)C1` (centres undefined) was inactive: -2.5%.
As to `COc1cccc(C(=O)NCC2(N3CCCCC3)CCCCC2)c1`, the activation is inactive: -0.62%.
The value for `O=C(OC1CN2CCC1CC2)C(CO)(c1ccccc1)c1ccccc1` (centres undefined) was inactive: 3.07%.
Turning to `CN(C)c1cccc(C(=O)NCC2(N(C)C)CCCCC2)c1`, the activation was inactive: -0.54%.
